# Data from PubChem BioAssay AID1379 (National Center for Advancing Translational Sciences (NCATS), 2008).
# This is a selection; strong and weak results do not stand in their true shares. The source made the active and inactive calls. Calls follow the shape of the dose curve; as a rule, active = well fitted inhibition curve with a large enough effect; inconclusive = small, poorly fitted or top-dose-only effect; inactive = flat fitted curve, though single readings scatter.
# Biological target: Luciferin 4-monooxygenase (Photuris pensylvanica) (UniProt Q27757)
# Test: Counterscreen for Luciferase (Kinase-Glo TM) Inhibition; also: nearly all actives have a fitted effect of over 60% in size
# Conditions: ATP luminescence, 8 min; at 38.3 µM (top of the series) unless noted
# Experimental: NCGC Assay Overview: NIH Molecular Libraries Screening Centers Network [MLSCN] NIH Chemical Genomics Center [NCGC] MLSCN Grant: None Luciferase (Kinase-Glo, Promega Corporation) was assayed for its ability to generate light using ATP and luciferin as substrates. The ATP concentration in the assay (10 uM) was within the linear range of enzyme activity for the assay conditions used.
# NCGC Assay Protocol Summary: Four uL of substrate mix (final concentration, 50 mM imidazole pH 7.2, 50 mM KCl, 7 mM MgCl2, 10 uM ATP, 0.01% Tween 20, 0.05% BSA) was dispensed into white 1536 well plates. Twenty-three nL of compound was delivered by a pin tool and 2 uL of luciferase detection mix (Kinase-Glo, Promega)) was added. Following 8-minute incubation at ambient temperature, luminescence was measured by a ViewLux (Perkin Elmer) at 5 seconds exposure/plate.
# % is scaled to controls: 0 for no effect and ±100 for the full control effect.
row,SMILES,"activity change, negative = inhibition"
1,CCOC(=O)N1CCC(Nc2ccc(OC)cc2)CC1,inactive: -4%
2,O=C(OC1CN2CCC1CC2)C1c2ccccc2Oc2ccccc21 (stereo not drawn),inactive: -1.02%
3,O=C(NCC1(N2CCOCC2)CCCCC1)c1cc2ccccc2o1,inactive: 2.04%
4,COc1ccc(C(=O)NCC2(N3CCCCC3)CCCCC2)c(OC)c1OC,inactive: -0.215%
5,COc1ccc(NC2CCN(CCc3ccccc3)CC2)c(OC)c1,inactive: 0.0195%
6,CN1CCN(CCOC(=O)C(O)(c2ccccc2)c2ccccc2)CC1,inactive: -2.53%
7,COc1ccc(NC2CCN(C(=O)OC(C)(C)C)CC2)cc1,inactive: 1.55%
8,O=C(NCC1(N2CCOCC2)CCCCC1)c1cc(=O)[nH]c2ccccc12,inactive: 1.46%
9,O=[N+]([O-])c1cc([N+](=O)[O-])c(NCC2CCS(=O)(=O)C2)c([N+](=O)[O-])c1 (stereo not drawn),inactive: 2.65%
10,O=C(NCC1(N2CCCCC2)CCCCC1)c1cccc([N+](=O)[O-])c1,inactive: 0.0373%
11,N#CC1(Nc2ccccc2)CCN(CCc2ccccc2)CC1,inactive: 0.564%
12,NC1CCCCC1.NP(=O)(O)N(CCCl)CCCl,inactive: -7.24% [at 7.66 µM]
13,COc1ccc(CN(CCCl)CCCl)cc1Cl,inactive: -0.0925%
14,CN(C)c1cccc(C(=O)NCC2(N3CCCCC3)CCCCC2)c1,inactive: -0.574%
15,CC(C)c1ccc(NC2CCN(C(=O)OC(C)(C)C)CC2)cc1,inactive: -0.482%
16,O=C(OC1CN2CCC1CC2)C1c2ccccc2C=Cc2ccccc21 (stereo not drawn),inactive: -3.12%
17,N/C(=N\O)c1c(N)no[n+]1[O-],inactive: -2.02%
18,COc1ccc(C(=O)NCC2(N3CCOCC3)CCCCC2)cc1OC,inactive: 2.34%
19,c1ccc(CN2CCC(Nc3ccccc3)CC2)cc1,inactive: 22.8%
20,N#Cc1ccc(C(=O)NCC2(N3CCCCC3)CCCCC2)cc1,inactive: -0.392%
21,CN(C)c1ccc(C(=O)NCC2(N3CCCCC3)CCCCC2)cc1,inactive: 1.17%
22,CCN1CCC(Nc2cccc(F)c2)CC1,inactive: 0.82%
23,Fc1ccccc1NC1CCN(Cc2ccccc2)CC1,inactive: 15.8%
24,CCC(CO)(C(=O)OC1CN2CCC1CC2)c1ccccc1 (stereo not drawn),inactive: 0.183%
25,COc1cc(OC)cc(C(=O)NCC2(N3CCOCC3)CCCCC2)c1,inactive: -0.557%
26,CC(C)(C)OC(=O)N1CCC(Nc2ccccc2)CC1,inactive: -0.492%
27,O=C(O)C1(Nc2ccccc2)CCN(Cc2ccccc2)CC1,inactive: -0.372% [at 7.66 µM]
28,CCOc1ncccc1C(=O)NCC1(N2CCOCC2)CCCCC1,inactive: -6.16%
